From patent US7407934B2, “Methods for regulating postprandial blood glucose” (Amylin Pharmaceuticals, Inc., priority 1993, dated 2008)

Legend:
[1] = system: insulin-stimulated glycogen synthesis in soleus muscle; test: Soleus muscle assay (inhibition of insulin-stimulated glycogen synthesis); type: cell-based, rat
Procedure: Concentrations of peptide dissolved in carrier-free buffers are determined by quantitative amino acid analysis, as described therein. The ability of compounds to act as agonists in this assay is determined by measuring EC50 values. […] Similar results were obtained with other agonist compounds listed above.

[2] = biological target: T1, amylin receptors (Rattus norvegicus, UniProt P32214); test: Receptor binding assay (competition with 125I Bolton-Hunter rat amylin)
T1 construct: This basal forebrain tissue, containing the nucleus accumbens and surrounding regions, was weighed and homogenized; from tissue; host or cells: rat basal forebrain (nucleus accumbens and surrounding regions) membranes
T1 sequence (P32214 25-516): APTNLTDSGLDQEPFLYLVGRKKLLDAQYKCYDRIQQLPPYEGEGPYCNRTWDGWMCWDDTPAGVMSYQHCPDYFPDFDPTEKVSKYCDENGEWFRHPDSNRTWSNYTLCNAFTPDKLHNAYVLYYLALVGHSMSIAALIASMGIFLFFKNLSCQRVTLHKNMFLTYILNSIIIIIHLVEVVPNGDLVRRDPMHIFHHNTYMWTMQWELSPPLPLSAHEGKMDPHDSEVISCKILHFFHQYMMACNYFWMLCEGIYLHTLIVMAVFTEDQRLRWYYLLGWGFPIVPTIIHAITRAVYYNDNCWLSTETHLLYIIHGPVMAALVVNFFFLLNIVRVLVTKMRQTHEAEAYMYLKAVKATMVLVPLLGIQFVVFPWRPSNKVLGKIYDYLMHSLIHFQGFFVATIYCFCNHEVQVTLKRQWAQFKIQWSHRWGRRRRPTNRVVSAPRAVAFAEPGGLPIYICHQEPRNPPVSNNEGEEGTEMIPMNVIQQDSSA
Source text: A preferred source of the membrane preparations used in the assay is the basal foregrain which comprises membranes from the nucleus accumbens and surrounding regions.
Unlabeled peptides were obtained from BACHEM Inc. (Torrance, Calif.) and Peninsula Laboratories (Belmont, Calif.).
Male Sprague-Dawley rats (200-250) grams were sacrificed by decapitation. Brains were removed to cold phosphate-buffered saline (PBS). From the ventral surface, cuts were made rostral to the hypothalamus, bounded laterally by the olfactory tracts and extending at a 45° angle medially from these tracts. This basal forebrain tissue, containing the nucleus accumbens and surrounding regions, was weighed and homogenized in ice-cold 20 mM HEPES buffer (20 mM HEPS acid, pH adjusted to 7.4 with NaOH at 23° C.). […] The final membrane pellet was resuspended in 20 nM HEPES buffer containing 0.2 mM phenylmethylsulfonyl fluoride (PMSF).
Solutions were incubated for 60 minutes at 23° C. […] Filters were washed immediately before filtration with 5 ml cold PBS, and immediately after filtration with 15 ml cold PBS.

Compound | EC50 [1] | Competition with amylin / receptor binding activity (in words) [2]
CC[C@H](C)[C@H](NC(=O)[C@H](C)NC(=O)CNC(=O)[C@H](Cc1ccccc1)NC(=O)[C@H](CC(N)=O)NC(=O)[C@H](CC(N)=O)NC(=O)[C@H](CO)NC(=O)[C@H](CO)NC(=O)[C@H](Cc1c[nH]cn1)NC(=O)[C@@H](NC(=O)[C@H](CC(C)C)NC(=O)[C@H](Cc1ccccc1)NC(=O)[C@H](CC(N)=O)NC(=O)[C@H](C)NC(=O)[C@H](CC(C)C)NC(=O)[C@H](CCCNC(=N)N)NC(=O)[C@H](CCC(N)=O)NC(=O)[C@@H](NC(=O)[C@H](C)NC(=O)[C@@H]1CSSC[C@H](NC(=O)[C@H](C)N)C(=O)N[C@@H](CC(N)=O)C(=O)N[C@@H]([C@@H](C)O)C(=O)N[C@@H](C)C(=O)N[C@@H]([C@@H](C)O)C(=O)N1)[C@@H](C)O)C(C)C)C(=O)N[C@@H](CC(C)C)C(=O)N[C@@H](CO)C(=O)N[C@@H](CO)C(=O)N[C@H](C(=O)N[C@@H](CC(N)=O)C(=O)N[C@H](C(=O)NCC(=O)N[C@@H](CO)C(=O)N[C@@H](CC(N)=O)C(=O)N[C@H](C(=O)N[C@@H](Cc1ccc(O)cc1)C(N)=O)[C@@H](C)O)C(C)C)[C@@H](C)O [^1Ala-h-Amylin] | 12.8 nM | –
CC[C@H](C)[C@H](NC(=O)[C@H](C)NC(=O)CNC(=O)[C@H](Cc1ccccc1)NC(=O)[C@H](CC(N)=O)NC(=O)[C@H](CC(N)=O)NC(=O)[C@H](CO)NC(=O)[C@H](CO)NC(=O)[C@H](Cc1c[nH]cn1)NC(=O)[C@@H](NC(=O)[C@H](CC(C)C)NC(=O)[C@H](Cc1ccccc1)NC(=O)[C@H](CC(N)=O)NC(=O)[C@H](C)NC(=O)[C@H](CC(C)C)NC(=O)[C@H](CCCNC(=N)N)NC(=O)[C@H](CCC(N)=O)NC(=O)[C@@H](NC(=O)[C@H](C)NC(=O)[C@@H]1CSSC[C@H](NC(=O)[C@@H](N)CO)C(=O)N[C@@H](CC(N)=O)C(=O)N[C@@H]([C@@H](C)O)C(=O)N[C@@H](C)C(=O)N[C@@H]([C@@H](C)O)C(=O)N1)[C@@H](C)O)C(C)C)C(=O)N[C@@H](CC(C)C)C(=O)N[C@@H](CO)C(=O)N[C@@H](CO)C(=O)N[C@H](C(=O)N[C@@H](CC(N)=O)C(=O)N[C@H](C(=O)NCC(=O)N[C@@H](CO)C(=O)N[C@@H](CC(N)=O)C(=O)N[C@H](C(=O)N[C@@H](Cc1ccc(O)cc1)C(N)=O)[C@@H](C)O)C(C)C)[C@@H](C)O [^1Ser-h-Amylin] | 8.7 nM | –
CC[C@H](C)[C@H](NC(=O)[C@@H]1CCCN1C(=O)CNC(=O)[C@H](Cc1ccccc1)NC(=O)[C@H](CC(N)=O)NC(=O)[C@H](CC(N)=O)NC(=O)[C@H](CO)NC(=O)[C@H](CO)NC(=O)[C@H](CCCNC(=N)N)NC(=O)[C@@H](NC(=O)[C@H](CC(C)C)NC(=O)[C@H](Cc1ccccc1)NC(=O)[C@H](CC(N)=O)NC(=O)[C@H](C)NC(=O)[C@H](CC(C)C)NC(=O)[C@H](CCCNC(=N)N)NC(=O)[C@H](CCC(N)=O)NC(=O)[C@@H](NC(=O)[C@H](C)NC(=O)[C@@H]1CSSC[C@H](NC(=O)[C@@H](N)CCCCN)C(=O)N[C@@H](CC(N)=O)C(=O)N[C@@H]([C@@H](C)O)C(=O)N[C@@H](C)C(=O)N[C@@H]([C@@H](C)O)C(=O)N1)[C@@H](C)O)C(C)C)C(=O)N[C@@H](CC(C)C)C(=O)N1CCC[C@H]1C(=O)N1CCC[C@H]1C(=O)N[C@H](C(=O)N[C@@H](CC(N)=O)C(=O)N[C@H](C(=O)NCC(=O)N[C@@H](CO)C(=O)N[C@@H](CC(N)=O)C(=O)N[C@H](C(=O)N[C@@H](Cc1ccc(O)cc1)C(N)=O)[C@@H](C)O)C(C)C)[C@@H](C)O [^18Arg^25,28,29Pro-h-Amylin] | 1.25 nM | compete with amylin
CC[C@H](C)[C@H](NC(=O)[C@@H]1CCCN1C(=O)CNC(=O)[C@H](Cc1ccccc1)NC(=O)[C@H](CC(N)=O)NC(=O)[C@H](CC(N)=O)NC(=O)[C@H](CO)NC(=O)[C@H](CO)NC(=O)[C@H](Cc1c[nH]cn1)NC(=O)[C@@H](NC(=O)[C@H](CC(C)C)NC(=O)[C@H](Cc1ccccc1)NC(=O)[C@H](CC(N)=O)NC(=O)[C@H](C)NC(=O)[C@H](CC(C)C)NC(=O)[C@H](CCCNC(=N)N)NC(=O)[C@H](CCC(N)=O)NC(=O)[C@@H](NC(=O)[C@H](C)NC(=O)[C@@H]1CSSC[C@H](NC(=O)[C@@H](N)CCCCN)C(=O)N[C@@H](CC(N)=O)C(=O)N[C@@H]([C@@H](C)O)C(=O)N[C@@H](C)C(=O)N[C@@H]([C@@H](C)O)C(=O)N1)[C@@H](C)O)C(C)C)C(=O)N[C@@H](CC(C)C)C(=O)N1CCC[C@H]1C(=O)N[C@@H](CO)C(=O)N[C@H](C(=O)N[C@@H](CC(N)=O)C(=O)N[C@H](C(=O)NCC(=O)N[C@@H](CO)C(=O)N[C@@H](CC(N)=O)C(=O)N[C@H](C(=O)N[C@@H](Cc1ccc(O)cc1)C(N)=O)[C@@H](C)O)C(C)C)[C@@H](C)O [^25,28Pro-h-Amylin] | 13.2 nM | –
CC(C)C[C@H](NC(=O)[C@H](CCCNC(=N)N)NC(=O)[C@H](CCC(N)=O)NC(=O)[C@@H](NC(=O)[C@H](C)NC(=O)[C@@H]1CSSC[C@H](NC(=O)[C@@H](N)CCCCN)C(=O)N[C@@H](CC(N)=O)C(=O)N[C@@H]([C@@H](C)O)C(=O)N[C@@H](C)C(=O)N[C@@H]([C@@H](C)O)C(=O)N1)[C@@H](C)O)C(=O)N[C@@H](C)C(=O)N[C@@H](CC(N)=O)C(=O)N[C@@H](Cc1ccccc1)C(=O)N[C@@H](CC(C)C)C(=O)N[C@H](C(=O)N[C@@H](Cc1c[nH]cn1)C(=O)N[C@@H](CO)C(=O)N[C@@H](CO)C(=O)N[C@@H](CC(N)=O)C(=O)N[C@@H](CC(N)=O)C(=O)N[C@@H](Cc1ccccc1)C(=O)NCC(=O)N1CCC[C@H]1C(=O)N[C@H](C(=O)N[C@@H](CC(C)C)C(=O)N1CCC[C@H]1C(=O)N1CCC[C@H]1C(=O)N[C@H](C(=O)N[C@@H](CC(N)=O)C(=O)N[C@H](C(=O)NCC(=O)N[C@@H](CO)C(=O)N[C@@H](CC(N)=O)C(=O)N[C@H](C(=O)N[C@@H](Cc1ccc(O)cc1)C(N)=O)[C@@H](C)O)C(C)C)[C@@H](C)O)C(C)C)C(C)C [^25Pro^26Val^28,29Pro-h-Amylin] | 4.68 nM | compete with amylin
CC[C@H](C)[C@H](NC(=O)[C@H](C)NC(=O)CNC(=O)[C@H](Cc1ccccc1)NC(=O)[C@H](CC(N)=O)NC(=O)[C@H](CC(N)=O)NC(=O)[C@H](CO)NC(=O)[C@H](CO)NC(=O)[C@H](Cc1c[nH]cn1)NC(=O)[C@@H](NC(=O)[C@H](CC(C)C)NC(=O)[C@H](Cc1ccccc1)NC(=O)[C@H](CC(N)=O)NC(=O)[C@H](C)NC(=O)[C@H](CC(C)C)NC(=O)[C@H](CCCNC(=N)N)NC(=O)[C@H](CCC(N)=O)NC(=O)[C@@H](NC(=O)[C@H](C)NC(=O)[C@@H]1CSSC[C@H](NC(=O)[C@@H](N)CCCCN)C(=O)N[C@@H](CC(N)=O)C(=O)N[C@@H]([C@@H](C)O)C(=O)N[C@@H](C)C(=O)N[C@@H]([C@@H](C)O)C(=O)N1)[C@@H](C)O)C(C)C)C(=O)N[C@@H](CC(C)C)C(=O)N[C@@H](CO)C(=O)N1CCC[C@H]1C(=O)N[C@H](C(=O)N[C@@H](CC(N)=O)C(=O)N[C@H](C(=O)NCC(=O)N[C@@H](CO)C(=O)N[C@@H](CC(N)=O)C(=O)N[C@H](C(=O)N[C@@H](Cc1ccc(O)cc1)C(N)=O)[C@@H](C)O)C(C)C)[C@@H](C)O [^29Pro-h-Amylin] | 3.75 nM | –
CC[C@H](C)[C@H](NC(=O)[C@@H]1CCCN1C(=O)CNC(=O)[C@H](Cc1ccccc1)NC(=O)[C@H](CC(N)=O)NC(=O)[C@H](CC(N)=O)NC(=O)[C@H](CO)NC(=O)[C@H](CO)NC(=O)[C@H](Cc1c[nH]cn1)NC(=O)[C@@H](NC(=O)[C@H](CC(C)C)NC(=O)[C@H](Cc1ccccc1)NC(=O)[C@H](CC(N)=O)NC(=O)[C@H](C)NC(=O)[C@H](CC(C)C)NC(=O)[C@H](CCCNC(=N)N)NC(=O)[C@H](CCC(N)=O)NC(=O)[C@@H](NC(=O)[C@H](C)NC(=O)[C@@H]1CSSC[C@H](N)C(=O)N[C@@H](CC(N)=O)C(=O)N[C@@H]([C@@H](C)O)C(=O)N[C@@H](C)C(=O)N[C@@H]([C@@H](C)O)C(=O)N1)[C@@H](C)O)C(C)C)C(=O)N[C@@H](CC(C)C)C(=O)N1CCC[C@H]1C(=O)N[C@@H](CO)C(=O)N[C@H](C(=O)N[C@@H](CC(N)=O)C(=O)N[C@H](C(=O)NCC(=O)N[C@@H](CO)C(=O)N[C@@H](CC(N)=O)C(=O)N[C@H](C(=O)N[C@@H](Cc1ccc(O)cc1)C(N)=O)[C@@H](C)O)C(C)C)[C@@H](C)O [des-^1Lys^25,28Pro-h-Amylin] | 7.7 nM | –
